Test system: IL-6
Settings: pancreatic cancer patients of P001

Substance: cggcatgtct attttgta (antisense CGGCATGTCTATTTTGTA; chemistry not given here) [OT-101]
- patients with elevated IL-6 showing significant reduction in IL-6 level following 1st cycle of dosing: 6 of 9
